Data reported in PMC9891691, “Chaperoning of specific tau structure by immunophilin FKBP12 regulates the neuronal resilience to extracellular stress” (Science Advances, 2023).

Protein sequences, listed by entry. Tags and fused reporters are not part of them. Chains listed by the source or under a name are the forms on record and can include a tag or linker.
UniProt P10636, other isoform, or with tags, fused parts or gaps Y394N | Y394N | Y394N Y394N: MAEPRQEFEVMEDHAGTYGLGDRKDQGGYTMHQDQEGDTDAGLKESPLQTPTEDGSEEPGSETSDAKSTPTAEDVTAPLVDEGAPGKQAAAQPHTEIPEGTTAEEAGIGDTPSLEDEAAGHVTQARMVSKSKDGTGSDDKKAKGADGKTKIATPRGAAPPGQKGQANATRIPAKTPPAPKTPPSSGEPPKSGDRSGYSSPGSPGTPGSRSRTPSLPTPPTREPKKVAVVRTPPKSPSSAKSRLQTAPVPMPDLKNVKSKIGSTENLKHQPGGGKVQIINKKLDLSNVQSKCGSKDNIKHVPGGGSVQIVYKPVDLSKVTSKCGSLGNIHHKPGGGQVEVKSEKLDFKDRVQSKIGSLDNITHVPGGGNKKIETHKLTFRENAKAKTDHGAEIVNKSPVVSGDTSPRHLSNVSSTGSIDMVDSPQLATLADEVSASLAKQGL

Key:
[1] = target: T1, Y394N 2N4R tau (human, UniProt P10636-8, Y394N); test: NMR titration; 1H-15N HSQC of 15N-labelled phosphorylated 2N4R tau or Y394N 2N4R tau (30 uM) without or with unlabelled FKBP12 (60 or 150 uM); 50 mM NaP, 10 mM NaCl, 1 mM DTT, pH 6.8, 278 K, 800 MHz; details: both partners purified
T1 construct: human microtubule-associated protein tau, isoform 2N4R (hTau40), 441 residues as printed, with Y394N; UniProt ID printed as '10636-8'; Uniformly 15N-labelled; also called Y394N-mutant tau; source: E. coli BL21(DE3), pNG2 vector, purified

[2] = target: T2, 2N4R tau (hTau40, microtubule-associated protein tau) (human, UniProt P10636-8); test: NMR titration; 1H-15N HSQC of 15N-labelled 2N4R tau (45 uM) without or with unlabelled FKBP12 (90 or 225 uM); 50 mM NaP, 10 mM NaCl, 1 mM DTT, pH 6.8, 278 K, 600 MHz; details: both partners purified
T2 construct: human microtubule-associated protein tau, isoform 2N4R (hTau40), 441 residues as printed; UniProt ID printed as '10636-8'; Uniformly 15N-labelled (or 13C-15N-labelled) for NMR; unlabelled for the aggregation assays and for the fibrils pelleted with FKBP12; In the co-sedimentation assay the protein stood as cofactor-free amyloid fibrils; also called MAPT; monomeric tau

B1: FKBP12, the 12-kDa FK506-binding protein (FKBP prolyl isomerase 1A) (enzyme)
chain: not shown
notes: human FKBP12 (FKBP prolyl isomerase 1A); Unlabelled in the NMR titrations; also called immunophilin FKBP12; source: E. coli BL21, pET28a, purified (nickel column, TEV cleavage, second nickel column, SEC); not shown: His tag, N-terminal, cleaved
[1]
  binding result: binds
[2]
  binding result: binds
